Here are results for one compound from ChEMBL document CHEMBL5214998, “Development of Macrocyclic PRMT5-Adaptor Protein Interaction Inhibitors” (J Med Chem, 2022).

The chains behind the UniProt entries cited, without tags or fusion partners.
UniProt O14744, whole entry: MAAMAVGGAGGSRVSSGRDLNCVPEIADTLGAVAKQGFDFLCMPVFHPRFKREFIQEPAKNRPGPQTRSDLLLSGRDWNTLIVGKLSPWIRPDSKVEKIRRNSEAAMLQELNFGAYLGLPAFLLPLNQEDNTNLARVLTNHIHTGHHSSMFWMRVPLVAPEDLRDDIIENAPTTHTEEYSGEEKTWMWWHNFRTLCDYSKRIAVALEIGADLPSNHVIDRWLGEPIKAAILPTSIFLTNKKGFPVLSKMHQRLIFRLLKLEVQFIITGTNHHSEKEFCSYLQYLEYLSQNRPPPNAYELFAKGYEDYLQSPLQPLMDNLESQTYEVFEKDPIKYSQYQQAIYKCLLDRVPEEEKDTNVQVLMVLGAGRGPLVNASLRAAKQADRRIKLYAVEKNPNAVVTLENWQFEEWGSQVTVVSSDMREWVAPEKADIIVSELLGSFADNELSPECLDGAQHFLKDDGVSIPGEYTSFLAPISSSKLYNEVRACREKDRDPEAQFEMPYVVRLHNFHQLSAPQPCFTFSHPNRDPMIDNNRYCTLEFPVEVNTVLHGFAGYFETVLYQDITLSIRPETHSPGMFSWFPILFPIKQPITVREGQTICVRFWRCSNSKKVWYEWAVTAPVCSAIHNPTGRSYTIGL

For the assay, the target named is PRMT5/MEP50 complex (Homo sapiens, UniProt O14744). Put plainly: Binding affinity to PRMT5/MEP50 (unknown origin) assessed as dissociation constant by FITC- Competitive binding assay. The class given is protein-complex assay. A digest of the protocol: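 Direct FP binding: FITC-labeled peptide at 1 nM final with PRMT5-MEP50 complex titrated as two-fold dilutions in 50 mM HEPES, 250 mM NaCl, 1 mM TCEP, 0.01% Tween 20, pH 8.0; incubated 1–2 h at room temperature; read at 485/535 nm; triplicate.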

Each structure is given as a SMILES string.

Consider `CC(=O)N[C@H](C(=O)N1CCC[C@H]1C(=O)N[C@H]1C/C=C\CC[C@@H](C(=O)N[C@@H](CC(=O)O)C(=O)N[C@@H](C)C(=O)N[C@@H](CC(=O)O)C(=O)N[C@@H](CCCCNC(=S)Nc2ccc3c(c2)C(=O)OC32c3ccc(O)cc3Oc3cc(O)ccc32)C(N)=O)NC(=O)[C@H](Cc2ccccc2)NC(=O)[C@H](CCC(N)=O)NC1=O)C(C)C` (stereo in doubt), for which the equilibrium dissociation constant (Kd) is 1680 nM.
